In patent EP1000039B1 (Wyeth Holdings Corporation, priority 1997, dated 1999):

Target: T1, His-tagged cytoplasmic domain of EGFR (Homo sapiens, UniProt P00533)
T1 construct: containing the EGFR cDNA encoding amino acids 645 - 1186 preceded by Met-Ala-(His)6; Met-Ala-(His)6 (N); made in house; host or cells: Sf9 insect cells, recombinant baculovirus vHcEGFR52
Assay: Inhibition of Epidermal Growth Factor Receptor Kinase (EGF-R) using recombinant enzyme, RR-SRC peptide phosphorylation
Type: biochemical

## N-[4-(3-Bromo-phenylamino)-quinazolin-6-yl]-2-morpholin-4-ylmethyl-acrylamide [Example 63]
  IC50: 5 pM
